Apparent affinities of Ab-14 variants for a coronavirus HR2 peptide

Reference: Li et al. 2023, doi:10.1038/s41467-023-39022-2. File: FLAb, binding data.

Target: peptide PDVDLGDISGINAS, taken from heptad repeat 2 (HR2) of SARS-CoV-2 spike.

Parent scFv Ab-14: VH joined to VL by a (GGGGS)3 linker. Changes lie in the light chain CDRs alone.
VH: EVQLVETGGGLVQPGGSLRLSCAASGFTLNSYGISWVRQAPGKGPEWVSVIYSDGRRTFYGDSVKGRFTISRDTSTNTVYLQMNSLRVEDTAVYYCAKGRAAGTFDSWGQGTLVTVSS
VL: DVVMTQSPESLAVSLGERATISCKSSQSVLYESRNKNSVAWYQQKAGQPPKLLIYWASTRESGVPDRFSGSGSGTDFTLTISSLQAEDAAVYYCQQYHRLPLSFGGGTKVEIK

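The starting antibody came from a phage panning campaign against this peptide. The variants were designed computationally from a first round of random CDR variants and then made and measured. Several design methods are mixed in this list. AlphaSeq pools MATa yeast showing the antibodies with MATalpha yeast showing the peptide. Mating (16 h, 30 °C) was followed by selection of diploids and sequencing of their barcodes. Read counts were normalised to the haploid input and turned into Kd by a linear fit to BCL2-family pairs of known affinity, for each replicate. Each pool was mated in six replicate cultures.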

Variants are written as CDR1, CDR2 and CDR3 of the light chain (limits as in the source). Parent: KSSQSVLYESRNKNSVA, WASTRES, QQYHRLPLS.
Values are apparent Kd, the geometric mean of the replicates that gave a signal; lower means stronger binding.
Where no diploid with the target was found in any replicate, the entry reads "no signal": below detection, most likely a poor binder, though not proof of it.
Three control strains display no target. For all light chain designs, 4% of the pairings with them gave a signal, with a median of 430 nM and one signal in twenty below 38 nM, so weak values seen in few replicates may be background.
Values of this round are not directly comparable with the first-round values of the same sequences.
The authors' rule: three or more of the six replicates give a measured affinity, fewer mean a poor binder.

CDR-L1,CDR-L2,CDR-L3,Kd (apparent),replicates with signal
KSSQSVLGESRNKNSVA,WASERES,QAYHRLPLS,42 nM,5 of 6
KSSISYLYGSRMKNSVA,EASTRES,QQYHRLPLS,1.3 nM,6 of 6
HISSMDMHDGGIMHSIA,DTGITER,QQYMRLPLI,2.3 nM,6 of 6
KLSMETYGLTGHASSIA,HEEIRWA,QQYHKLPLI,18 nM,4 of 6
HIDILNRGEDLKQDPIA,QADHREQ,QQYFHLPLA,9.9 nM,6 of 6
KLSATTEMEHVNRNSVA,ELVTRMK,QQYNRLPLS,11 nM,6 of 6
KLEGSVLYESRNKNSVA,NASTRES,QQYHRLPLS,630 pM,6 of 6
KVSPSWLYEDRNWNSVA,QASCRES,QQYHRLPLS,6.8 nM,6 of 6
KLSQSVLYESYNKNSVA,EASTRES,QQYHRLPLS,500 pM,6 of 6
QLGHYKHENMAKWQNIA,NMTIREK,QQYAHLPLA,130 nM,5 of 6
KMTGGLLDGNREPSNIA,AQDIGTD,QQYNRLPFI,1.4 nM,6 of 6
KLSQSWLYESRNKNSVA,NASTRMD,QQYHRLPLS,920 pM,6 of 6
KSLQSVLLESRNFNSVA,HASTRED,QQYHRLPLS,2.0 nM,6 of 6
KSLWSVPYESNNKNSVA,HASTRED,QQYHRLPLS,2.1 nM,6 of 6
KMSQSVLYESRNKNSVA,QASTRES,EQPHWLPLS,420 pM,6 of 6
KVPQSDLYESRNKNSVA,EASTRES,QQYHRLPLS,560 pM,6 of 6
KSSQSVLYESRNLNSVA,WASERES,QQYHNLPLS,150 nM,6 of 6
KLQQSELYESRNTNSVA,GASTRLE,QQYHRLPLS,700 pM,6 of 6
RFDLHVKEIETIESAVA,NTSVRAD,QSYDRLPLS,6.2 nM,1 of 6
MISQLYNMGTFAINSVA,QASIRNS,QQYDRLPLI,110 nM,1 of 6
KLVQFMNRGTHHTSNIA,DAQNRSD,QQYARLPLA,3.7 nM,6 of 6
KLSQVTHSESRNKNSIA,EMVTREV,QQYDRLPLE,8.6 nM,6 of 6
HMSAITLGGMRARNSVA,QMTTREN,QQYDRLPLA,3.2 nM,6 of 6
KLSLVLGVSKQVEKNIA,NERLKIA,QQYDRLPLT,18 nM,6 of 6
QIDHPELSFQQNQYSIA,NASASLD,QQYAQLPLM,23 nM,6 of 6
KLNSDSVLQWNINNSVA,EMSEVVQ,QQYVHLPLM,26 nM,6 of 6
KLEQSVLYESRNKNSVA,DASTRES,QQYHRLPLS,1.7 nM,6 of 6
KLQWLWLYESRNKNSVA,NASTRYS,QQYHRLPLS,9.8 nM,6 of 6
KAQQSELYGERNSNSVA,EASTRES,QQYHRLPLS,1.4 nM,6 of 6
KSSQSYEYESRNKNSVA,GASTRES,QQYHRLPLS,960 pM,6 of 6
TISQMTSLFSQTINNVA,EVSTREN,QQYDRLPLM,3.5 nM,6 of 6
KSSQGNLYESRNKNSVA,NASTRES,QQYHRLPLS,660 pM,6 of 6
RISQSVLYESRNKNSVA,DASTRES,QQYHRLPLS,1.1 nM,6 of 6
TLGDVTRMESNKKSSIA,DMSNRAE,QQYHRLPIS,12 nM,3 of 6
KLGEKERMNGMANKNVA,ADNTRVD,QEYHRLPLI,12 nM,6 of 6
KIGMTLNQLMHKKNNVA,DLVTREA,QQYHRLPLS,4.8 nM,6 of 6
SVTNETDGNGLKWNSVA,DAAEAMT,QQYFRLPLT,15 nM,5 of 6
HISQSVGMTIRNKNSVA,ENSTRED,QQYDRLPLS,300 nM,2 of 6
KSSQSSLQESRNKNSVA,WATTRES,QQYQRLPLF,480 nM,1 of 6
KSPYSVLYESRYKNSVA,TASTRES,QQYHRLPLS,600 nM,1 of 6
KVSPSVLYESFNKNSVA,NASTRMS,QQYHRLPLS,1.6 nM,6 of 6
HVSPSVLYESRNKNSVA,EASTRES,QQYHRLPLS,670 pM,6 of 6
HMSMLTLMGQRHVNSVA,QMTTREN,QQYDRLPLA,15 nM,6 of 6
MIQQLYNMGTFAINSVA,QASLRNE,QQYDRLPLM,47 nM,6 of 6
IISGSMLMESKHKNSVA,NAETREY,QHYHRLPLS,6.0 nM,6 of 6
KLSQYVGGESRNKSSLA,DNSTRET,QQYHRLPLS,43 nM,6 of 6
KSSQSVLYESRRGNSVA,SATERES,QQYHRLPLS,4.1 nM,6 of 6
KLSQQTLYESRNKNSVA,WASTREE,QQYHRLPLS,1.5 nM,6 of 6
KLMFLGDYESRNKNSVA,QASQREQ,QQYHRLPLS,1.7 nM,6 of 6
KFSQSVLYESRNKNSVA,WASTRES,QQVVRLPLS,no signal,0 of 6
KIELDLTRYNAGGANIA,HEVMRAQ,QQYSHLPLI,2.3 nM,6 of 6
KLSQSMEYESRNKASVA,HASTRES,QQYHRLPLS,2.5 nM,6 of 6

Excerpt, the first 5 entries:

CDR-L1,CDR-L2,CDR-L3,Kd (apparent),replicates with signal
KSSQSVLGESRNKNSVA,WASERES,QAYHRLPLS,42 nM,5 of 6
KSSISYLYGSRMKNSVA,EASTRES,QQYHRLPLS,1.3 nM,6 of 6
HISSMDMHDGGIMHSIA,DTGITER,QQYMRLPLI,2.3 nM,6 of 6
KLSMETYGLTGHASSIA,HEEIRWA,QQYHKLPLI,18 nM,4 of 6
HIDILNRGEDLKQDPIA,QADHREQ,QQYFHLPLA,9.9 nM,6 of 6